PMC2408963 (PLoS ONE, 2008)

Target: T1, murine TAP1/TAP2 complexes (mouse, UniProt P21958 1-724; P36371 1-702)
T1 construct: also called mouse TAP complexes; murine TAP transporter
T1 sequence (looked up) 1: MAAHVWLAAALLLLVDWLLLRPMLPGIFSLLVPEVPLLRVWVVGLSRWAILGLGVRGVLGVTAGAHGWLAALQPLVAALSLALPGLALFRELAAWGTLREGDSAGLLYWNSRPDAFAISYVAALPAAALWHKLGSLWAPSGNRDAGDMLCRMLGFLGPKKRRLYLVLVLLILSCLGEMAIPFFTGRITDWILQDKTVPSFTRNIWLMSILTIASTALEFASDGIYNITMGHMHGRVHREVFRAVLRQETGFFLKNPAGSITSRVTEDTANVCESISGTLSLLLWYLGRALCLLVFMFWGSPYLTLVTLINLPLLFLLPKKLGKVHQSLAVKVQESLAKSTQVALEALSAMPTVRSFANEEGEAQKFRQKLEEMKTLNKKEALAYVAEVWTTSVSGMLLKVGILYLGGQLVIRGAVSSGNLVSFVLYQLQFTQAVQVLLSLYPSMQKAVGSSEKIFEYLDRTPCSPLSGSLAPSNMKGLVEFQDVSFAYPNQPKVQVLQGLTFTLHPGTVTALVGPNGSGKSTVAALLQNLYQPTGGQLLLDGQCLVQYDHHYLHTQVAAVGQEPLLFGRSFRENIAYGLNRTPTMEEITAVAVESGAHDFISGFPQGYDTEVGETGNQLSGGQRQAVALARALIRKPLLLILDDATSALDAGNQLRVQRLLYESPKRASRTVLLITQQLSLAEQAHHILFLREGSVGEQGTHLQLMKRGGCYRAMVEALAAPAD
T1 sequence (looked up) 2: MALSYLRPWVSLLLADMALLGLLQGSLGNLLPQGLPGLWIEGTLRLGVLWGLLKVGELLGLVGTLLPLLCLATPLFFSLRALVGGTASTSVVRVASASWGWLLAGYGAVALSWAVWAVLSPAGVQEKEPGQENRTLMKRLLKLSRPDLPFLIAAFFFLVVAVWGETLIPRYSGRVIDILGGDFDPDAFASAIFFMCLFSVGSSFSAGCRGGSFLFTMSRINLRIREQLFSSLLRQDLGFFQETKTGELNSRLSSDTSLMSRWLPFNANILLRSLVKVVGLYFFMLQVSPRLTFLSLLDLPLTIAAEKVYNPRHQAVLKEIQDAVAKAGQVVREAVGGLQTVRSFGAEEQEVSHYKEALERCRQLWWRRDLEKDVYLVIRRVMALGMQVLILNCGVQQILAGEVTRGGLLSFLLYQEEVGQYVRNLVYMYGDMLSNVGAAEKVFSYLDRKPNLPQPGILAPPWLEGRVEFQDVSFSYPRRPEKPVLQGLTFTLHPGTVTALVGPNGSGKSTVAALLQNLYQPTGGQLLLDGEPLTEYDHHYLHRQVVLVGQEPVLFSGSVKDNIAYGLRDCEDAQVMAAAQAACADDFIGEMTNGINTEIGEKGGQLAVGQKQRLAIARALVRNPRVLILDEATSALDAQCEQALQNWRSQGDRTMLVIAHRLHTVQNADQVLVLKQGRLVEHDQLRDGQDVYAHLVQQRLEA
Experiment: fluorescence polarisation

Binder	relative IC50 [ratio]
AIITPVVFY	0.25
LLAVCGCIE	> 5000
NIVYKKNNR	> 5500
KTGGPIYKR	> 5800
NMEANDPEK	> 6000
NQSSHKGVG	> 7000
AAFEFINSL	0.11
RDAEFVMCL	0.15
NLYISDYKM	0.23
